# Laboratory results published in PubChem BioAssay AID2445 (The Scripps Research Institute Molecular Screening Center, 2010).
# Sequences of proteins named here, by UniProt entry; tags and fusion partners are left off. A change or cut given only in a name is not applied to a line headed by its entry.
# UniProt P30559: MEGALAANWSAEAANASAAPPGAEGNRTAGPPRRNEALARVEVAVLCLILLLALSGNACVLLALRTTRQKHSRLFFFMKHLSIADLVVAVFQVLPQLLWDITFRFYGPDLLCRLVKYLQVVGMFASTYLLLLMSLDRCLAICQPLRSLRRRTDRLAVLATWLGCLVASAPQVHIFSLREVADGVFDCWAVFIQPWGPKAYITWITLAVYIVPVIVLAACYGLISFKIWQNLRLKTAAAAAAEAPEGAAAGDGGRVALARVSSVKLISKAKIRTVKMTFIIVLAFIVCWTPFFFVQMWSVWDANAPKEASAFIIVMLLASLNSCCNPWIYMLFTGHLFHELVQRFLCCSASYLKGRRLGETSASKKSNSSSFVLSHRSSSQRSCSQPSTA
# Only a part is listed here, and it is no random draw. Active and inactive are the calls of the source.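 Rule for the calls: active = activation above that plate's cutoff, the mean activation of tested compounds plus 3 SD (cut at about 6.6% in these data, passing the limit was not always enough); inactive = the rest.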
# Target: Oxytocin receptor (Homo sapiens) (UniProt P30559)
# Experiment: enhancers of oxytocin-evoked OXTR calcium signal – fluorescence, CHO-OTR cells, Fluo-8 calcium, primary screen (AID 2445);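 note: 100% uses oxytocin at 75 nM as the full agonist control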
# Conditions: Fluo-8 calcium fluorescence, potentiator mode, at 3 µM, stronger effect = higher value, 0% = oxytocin EC15, 100% = EC100
row,SMILES,activation
1,O=C(O)COc1ccc([As](=O)(O)O)cc1[N+](=O)[O-],inactive: -9.66%
2,Nc1ccccc1[As](=O)(O)c1ccccc1,inactive: -2.59%
3,CS(=O)(=O)c1cc([N+](=O)[O-])c2no[n+]([O-])c2c1,inactive: -1.86%
4,O=P(Nc1nccs1)(c1ccccc1)c1nc2ccccc2s1 (centres undefined),inactive: -0.84%
5,O=P(Nc1nccs1)(Oc1ccccc1)Oc1ccccc1,inactive: 0.08%
6,CCOP1(=S)c2c(C)nn(CCC#N)c2N=C(c2ccccc2F)N1C (centres undefined),inactive: 1.82%
7,CCOP(=O)(Nc1cccc2ccccc12)OCC,inactive: 5.41%
8,COc1cc(C2NCCC3(OCCO3)C2(C)C)cc(OC)c1OC (centres undefined),inactive: 1.58%
9,CCCOP(=S)(Nc1nc(N)cc(=O)[nH]1)OCCC,inactive: -11.4%
10,Cc1ccc(NCCc2c([N+](=O)[O-])cc([N+](=O)[O-])cc2[N+](=O)[O-])cc1,inactive: -1.16%
11,Nc1cccc2c([As](=O)(O)O)cccc12,inactive: -8.49%
12,O=[As](O)(c1cccc(O)c1)c1cccc(O)c1,inactive: 3.48%
13,Cc1cccc(OCC(=O)OC2CN3CCC2CC3)c1 (centres undefined),inactive: -9.88%
14,CS(=O)(=O)c1ccc(Cl)c(NC(=O)COC(=O)C(O)(c2ccccc2)c2ccccc2)c1,inactive: -14.3%
15,COc1cc(C(=O)NCC2(N3CCOCC3)CCCCC2)cc(Cl)c1OC(C)C,inactive: -14.3%
16,O=[As](O)(O)c1cccnc1,inactive: 2.42%
17,O=C(OC1CN2CCC1CC2)c1ccc(Cl)cc1 (centres undefined),inactive: -1.88%
18,COc1ccc(N/C(=N/P(=O)(N2CCOCC2)N2CCOCC2)N2CCOCC2)cc1,inactive: -0.07%
19,COc1cc(I)ccc1[As](=O)(O)O,inactive: -3.58%
20,COc1ccc2nc(NP(=O)(c3ccccc3)c3ccccc3)sc2c1,inactive: -5.83%
21,Cc1cc(=O)[nH]c(N[N+](=O)[O-])n1,inactive: -5.67%
22,O=C(OC1CN2CCC1CC2)C12CC3CC(CC(C3)C1)C2 (centres undefined),inactive: -4.54%

row,SMILES,activation
1,Cc1c2c(nc3ccccc13)SC(C(Cl)Cl)C2 (centres undefined),inactive: 6.65%
2,O=[N+]([O-])c1cc([N+](=O)[O-])c(-c2ccn[nH]2)s1,inactive: -7.1%
3,CCN(CC)C(=S)SC(NC=O)C(Cl)(Cl)Cl (centres undefined),inactive: 6.81%
4,CC(C)NC(=O)NP(=O)(Oc1ccccc1)Oc1ccccc1,inactive: 0.22%
5,CC(C)c1ccc(OP(=O)(Nc2ccccn2)Oc2ccccc2F)cc1 (centres undefined),inactive: -1.84%
6,ClCCSc1nnc(-c2cccnc2)o1,inactive: -4.4%
7,Cc1ccc2nc3c(c(C)c2c1)CC(C(Cl)Cl)S3 (centres undefined),inactive: -13.9%
8,Cc1ccc(OP(=O)(Nc2ccc([N+](=O)[O-])cn2)Oc2ccc(C)cc2)cc1,inactive: -8.64%
9,COc1cc(C(=O)NCC2(N3CCOCC3)CCCCC2)ccc1OCC(C)C,inactive: -2.51%
10,C[As](=O)(O)c1cccc(C(=O)O)c1,inactive: -11.4%
11,O=[As](O)(c1ccc(O)cc1)c1ccccc1O,inactive: 2.25%
12,Cc1cc(SC(NC=O)C(Cl)(Cl)Cl)ncn1 (centres undefined),inactive: -16.7%
13,O=P(Nc1ccccn1)(c1cccc2ccccc12)c1cccc2ccccc12,inactive: -9.55%
14,CCOC(=O)Nc1cccc([As](=O)(O)O)c1,inactive: -9.56%
15,Cc1cc(SC(NC(=O)c2ccccc2)C(Cl)(Cl)Cl)nc(C(C)C)n1 (centres undefined),inactive: -0.49%
16,CCOC(=O)Nc1ccc([As](=O)(O)O)c(O)c1,inactive: -3.55%
17,CCC(C)N(CC(C)C)C(=S)SC(NC(C)=O)C(Cl)(Cl)Cl (centres undefined),inactive: -10.6%
18,CCOC(=O)c1ccc(NC(=O)C(C)(CCl)SC)cc1 (centres undefined),inactive: -13.9%
19,O=C(OC1CN2CCC1CC2)c1cccc([N+](=O)[O-])c1 (centres undefined),inactive: 0.94%
20,O=C(Nc1ccncc1[N+](=O)[O-])c1ccc([N+](=O)[O-])cc1[N+](=O)[O-],inactive: -8.66%
21,O=C(COc1ccccc1)OC1CN2CCC1CC2 (centres undefined),inactive: 1.85%
22,COP1(=S)c2c(C)nn(CCC#N)c2N=C(c2ccc(F)cc2)N1C (centres undefined),inactive: -2.99%
